In ChEMBL document CHEMBL1148593, “Matrix metalloproteinase target family landscape: a chemometrical approach to ligand selectivity based on protein binding site analysis” (J Med Chem, 2006) one finds Ki and IC50 data, which are given here for two molecules.

For orientation: Ki means the dissociation constant of the complex between target and ligand, obtained from inhibition or displacement. For orientation: IC50 means the point on the concentration scale where inhibition reaches its midpoint. A lower IC50 goes with higher potency.

For one assay, the target named is T1, Interstitial collagenase (Homo sapiens, UniProt P03956).
T1 sequence (P03956 whole entry): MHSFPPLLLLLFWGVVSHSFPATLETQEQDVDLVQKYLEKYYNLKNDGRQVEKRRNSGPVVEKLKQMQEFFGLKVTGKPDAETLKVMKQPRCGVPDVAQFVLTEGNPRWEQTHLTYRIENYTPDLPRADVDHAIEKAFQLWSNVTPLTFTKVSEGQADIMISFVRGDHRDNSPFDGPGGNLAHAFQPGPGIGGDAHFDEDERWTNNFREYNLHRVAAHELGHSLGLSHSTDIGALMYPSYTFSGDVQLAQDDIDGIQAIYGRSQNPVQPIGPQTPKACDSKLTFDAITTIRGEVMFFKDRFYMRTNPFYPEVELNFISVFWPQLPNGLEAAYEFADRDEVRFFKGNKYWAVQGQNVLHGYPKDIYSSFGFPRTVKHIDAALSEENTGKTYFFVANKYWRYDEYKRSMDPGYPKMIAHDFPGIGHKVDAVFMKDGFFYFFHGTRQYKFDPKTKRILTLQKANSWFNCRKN
Put plainly: Binding affinity to MMP1.

The next assay addresses Collagenase 3 (Homo sapiens, UniProt P45452). Put plainly: Binding affinity to MMP13.

For the molecule `CNC(=O)C1CCCCNC(=O)CCC(C(=O)O)NC(CCc2ccccc2)C(=O)N1` (configuration not stated), on Interstitial collagenase, the Ki was determined as 2500 nM.

On Collagenase 3, `O=C(O)C1Cc2ccccc2CN1S(=O)(=O)CCc1ccc(-c2ccc(Cl)cc2)cc1` (configuration not stated) showed an IC50 of 20 nM.
